These are literature values, as cited in paper PMC10406941 (Scientific Reports, 2023).

Protein sequences, listed by entry. Tags and fused reporters are not part of them. Lines headed by an entry give the natural chain unless they say otherwise; changes in a name come on top.
UniProt Q60492, whole entry: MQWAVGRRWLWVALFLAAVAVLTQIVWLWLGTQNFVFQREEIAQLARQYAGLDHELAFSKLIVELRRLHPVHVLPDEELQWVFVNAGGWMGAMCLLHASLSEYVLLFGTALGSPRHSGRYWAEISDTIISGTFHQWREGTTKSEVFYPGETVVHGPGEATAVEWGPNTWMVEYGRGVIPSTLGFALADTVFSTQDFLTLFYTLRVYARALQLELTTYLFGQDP

For the series, the target named is T1, S1R (Cavia porcellus, UniProt Q60492).
T1 construct: [^3H]-( +)-Pentazocine on guinea pig brain according to the generally accepted protocol; from tissue; host or cells: guinea pig brain
The conditions noted are these: Table 1; [3H]-(+)-Pentazocine, guinea pig brain; mean of three experiments in duplicate; cited from earlier work.

A word on the Ki: it is the dissociation constant of the complex between target and ligand, obtained from inhibition or displacement. In the case of `COc1cccc2c1CCCC2CCCCN1CCN(C2CCCCC2)CC1` (racemic) [Compound 4], the Ki is 1.54 nM. In the case of `Oc1cccc2c1CCCC2CCCN1CCN(C2CCCCC2)CC1` (racemic) [Compound 15], the Ki was 5.4 nM.
